test system: rat with cyclophosphamide (CPA)-induced urinary frequency; test: Rat with cyclophosphamide (CPA)-induced urinary frequency, effective bladder capacity; conditions: po, 1 h, read-out: effective oral administration dose (increased the reduced effective bladder capacity and improved the urinary frequency)

| SMILES | minimal effective dose [mg/kg] |
| --- | --- |
| NC(=O)c1cncc(OC(=O)N2CCC(CCc3cccc(C(=O)N4CCCC4)c3)CC2)c1 [Compound J, 5-(aminocarbonyl)pyridin-3-yl 4-{2-[3-(pyrrolidin-1-ylcarbonyl)phenyl]ethyl}piperidine-1-carboxylate] | 1 |
| Cc1cccc(N2CCC(CCCC3CCN(C(=O)Oc4cncc(C(=O)O)c4)CC3)CC2)n1 [Compound F, 5-{[(4-{3-[1-(6-methylpyridin-2-yl)piperidin-4-yl]propyl}piperidin-1-yl)carbonyl]oxy}nicotinic acid] | 1 |
| O=C(Oc1cccnc1)N1CCC(Oc2ccc(OCc3cccc(F)c3)cc2)CC1 [Compound A, pyridin-3-yl 4-{4-[(3-fluorobenzyl)oxy]phenoxy}piperidine-1-carboxylate] | 3 |
| O=C(O)c1cncc(OC(=O)N2CCC(Oc3ccc(OCCC4CCCCC4)cc3)CC2)c1 [Compound D, 5-[({4-[4-(2-cyclohexylethoxy)phenoxy]piperidin-1-yl}carbonyl)oxy]nicotinic acid] | 1 |
| O=C(O)c1cncc(OC(=O)N2CCC(Oc3ccc(OCc4cccc(F)c4)cc3)CC2)c1 [Compound B, 5-{[(4-{4-[(3-fluorobenzyl)oxy]phenoxy}piperidin-1-yl)carbonyl]oxy}nicotinic acid] | 3 |
| CN(C)C(=O)c1cccc(CCC2CCN(C(=O)Oc3cncc(C(N)=O)c3)CC2)c1 [Compound H, 5-(aminocarbonyl)pyridin-3-yl 4-(2-{3-[(dimethylamino)carbonyl]phenyl}ethyl)piperidine-1-carboxylate] | 1 |
